From BindingDB's records for doi:10.1021/jm960047o (Tohoku College of Pharmacy, 1996)

Protein sequences, listed by entry. Tags and fused reporters are not part of them. Lines headed by an entry give the natural chain unless they say otherwise; changes in a name come on top.
UniProt P11511: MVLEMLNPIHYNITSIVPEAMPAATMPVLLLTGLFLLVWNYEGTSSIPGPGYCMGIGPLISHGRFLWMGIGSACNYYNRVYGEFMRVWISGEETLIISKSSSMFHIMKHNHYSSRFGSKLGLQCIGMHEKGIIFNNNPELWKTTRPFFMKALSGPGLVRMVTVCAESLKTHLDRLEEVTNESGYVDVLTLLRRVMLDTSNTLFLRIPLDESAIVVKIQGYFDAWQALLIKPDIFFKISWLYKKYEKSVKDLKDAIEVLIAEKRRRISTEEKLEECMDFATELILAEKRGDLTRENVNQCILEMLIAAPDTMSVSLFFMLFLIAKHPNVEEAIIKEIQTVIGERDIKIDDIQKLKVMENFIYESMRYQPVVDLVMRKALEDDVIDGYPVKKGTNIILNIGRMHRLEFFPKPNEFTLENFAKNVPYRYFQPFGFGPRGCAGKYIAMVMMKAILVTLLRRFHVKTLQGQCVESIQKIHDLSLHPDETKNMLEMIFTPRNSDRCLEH

Biological target: Aromatase (Homo sapiens, UniProt P11511)

`CC12CCC3C(CCC4=CCCCC43C)C1CCC2=O` (stereo unspecified) was tested, and the IC50 was 60 nM.
